Here are results for 2 compounds from ChEMBL document CHEMBL4673282, “Identification of a New Heterocyclic Scaffold for Inhibitors of the Polo-Box Domain of Polo-like Kinase 1” (J Med Chem, 2020).

In general, Papp refers to the rate of passage across a membrane or cell layer, normalised by area and donor concentration.

This data set in a line: in vitro. The conditions noted are these: PAMPA. (In PAMPA a lipid-coated filter parts donor from acceptor wells.)

On to `CC(C)(C)OC(=O)CC[C@H](NC(=O)OC(C)(C)C)C(=O)NCCCn1c(=O)c2cc(F)ccc2n2c(=S)[nH]nc12`, for which the apparent permeability (Papp) came to 7440 nm/s.
`CC(C)(C)OC(=O)CC[C@@H](NC(=O)OC(C)(C)C)C(=O)NCCCn1c(=O)c2cc(F)ccc2n2c(=S)[nH]nc12` displayed an apparent permeability coefficient (Papp) of 1210 nm/s.
